Measured values as given in patent US20240304840A1 (priority 2023, published 2024).

Legend:
[1] = 1 mAh H-cell, 1 M sodium chloride, Selemion AMVN, about 20 days
From the text: An H-cell can be used for the coulombic efficiency tests. […] The electrolyte can be dissolved in about 1 M sodium chloride for electrochemical stability testing. The moles of anolyte and catholyte molecules present can be controlled to achieve the desired capacity of 1 mAh. […] Selemion™ anion exchange membrane (AMVN) can be used for the H-cells.

[2] = HPLC after 107 cycles over 30 days, 1 M KCl

## N,N,N,N2,N2-pentamethyl-N2-ferrocenylbutyl-1,3-propanediaminium dichloride [ferrocene-diammonium-Cl2]
[1]
  crossover in H-cell: almost no crossover

## monosodium glutamate-PDI [MSG-PDI]
[2]
  crossover of anolyte into the catholyte solution: no crossover
